Target: T1, Sterol 26-hydroxylase, mitochondrial (Homo sapiens, UniProt Q02318)
T1 sequence (Q02318 whole entry): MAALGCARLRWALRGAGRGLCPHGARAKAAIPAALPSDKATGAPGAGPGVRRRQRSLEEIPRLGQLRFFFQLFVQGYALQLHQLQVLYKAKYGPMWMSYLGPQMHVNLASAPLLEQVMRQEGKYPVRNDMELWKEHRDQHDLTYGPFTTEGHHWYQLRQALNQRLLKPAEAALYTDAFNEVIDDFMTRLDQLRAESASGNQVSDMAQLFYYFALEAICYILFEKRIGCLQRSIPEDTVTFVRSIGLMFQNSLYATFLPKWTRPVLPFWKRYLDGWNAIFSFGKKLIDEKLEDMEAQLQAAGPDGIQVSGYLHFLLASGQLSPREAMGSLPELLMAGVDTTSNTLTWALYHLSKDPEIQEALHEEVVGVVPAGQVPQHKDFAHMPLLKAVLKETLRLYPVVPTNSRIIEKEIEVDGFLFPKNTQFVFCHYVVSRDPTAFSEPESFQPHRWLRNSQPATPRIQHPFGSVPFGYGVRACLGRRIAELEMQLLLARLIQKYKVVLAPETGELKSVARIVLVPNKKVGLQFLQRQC
Experiment: biochemical

IC50: > 1000 nM
SMILES: C=C1/C(=C\C=C2/CCC[C@]3(C)[C@@H]([C@H](C)CC[S@](=N)(=O)c4ccccc4)CC[C@@H]23)C[C@@H](O)C[C@@H]1O

— ChEMBL document CHEMBL4706546, “Sulfoximines as Rising Stars in Modern Drug Discovery? Current Status and Perspective on an Emerging Functional Group in Medicinal Chemistry” (J Med Chem, 2020)
